Experimental data taken from patent US10787490B2, “Peptide inhibitors of interleukin-23 receptor and their use to treat inflammatory diseases” (Protagonist Therapeutics, Inc., priority 2015, dated 2020).

The chains behind the UniProt entries cited, without tags or fusion partners. Residues count along the entry.
UniProt Q5VWK5, 24-354 limits assumed, looked up: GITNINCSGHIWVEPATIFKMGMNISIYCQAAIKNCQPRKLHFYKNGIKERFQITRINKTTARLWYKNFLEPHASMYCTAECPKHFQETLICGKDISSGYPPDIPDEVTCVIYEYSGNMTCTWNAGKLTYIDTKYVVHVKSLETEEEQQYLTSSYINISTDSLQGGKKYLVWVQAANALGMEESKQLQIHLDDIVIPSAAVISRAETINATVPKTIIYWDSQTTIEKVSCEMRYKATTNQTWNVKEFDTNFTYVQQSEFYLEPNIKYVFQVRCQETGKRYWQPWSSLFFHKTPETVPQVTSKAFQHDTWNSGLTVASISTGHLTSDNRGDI

The compounds below were run against human IL-23R (IL23R_huFC) (Homo sapiens, UniProt Q5VWK5). Conditions: read-out: Human ELISA IL23/IL23R.
CC(=O)N[C@H]1CSSC[C@@H](C(=O)N[C@@H](Cc2ccc(O)cc2)C(=O)N[C@H](CC(=O)N[C@@H](CCCNC(=N)N)C(=O)N[C@H](C(=O)N[C@@H](CC(N)=O)C(=O)NCC(=O)NCCOCC(=O)N[C@H](CCCCN)C(N)=O)C(C)C)Cc2ccc(O)cc2)NC(=O)[C@H](CCC(N)=O)NC(=O)[C@H](Cc2c[nH]c3ccccc23)NC(=O)[C@H]([C@@H](C)O)NC(=O)[C@H](CCC(N)=O)NC1=O [compound 321] was tested, and the IC50 was > 30000 nM.
With CC(=O)N[C@H]1CSSC[C@@H](C(=O)N[C@@H](Cc2ccc(O)cc2)C(=O)N[C@H](CC(=O)N[C@@H](CCCNC(=N)N)C(=O)N[C@H](C(=O)N[C@@H](CC(N)=O)C(=O)NCC(=O)NCCOCC(=O)N[C@H](CCCCN)C(N)=O)C(C)C)Cc2ccc(F)cc2)NC(=O)[C@H](CCC(N)=O)NC(=O)[C@H](Cc2c[nH]c3ccccc23)NC(=O)[C@H]([C@@H](C)O)NC(=O)[C@H](CCC(N)=O)NC1=O [compound 322] the IC50 was > 30000 nM.
CC(=O)N[C@H]1CSSC[C@@H](C(=O)N[C@@H](Cc2ccc(O)cc2)C(=O)N[C@@H](Cc2c[nH]c3ccccc23)C(=O)N[C@@H](CCCNC(=N)N)C(=O)N[C@H](CC(=O)N[C@@H](CC(N)=O)C(=O)NCC(=O)NCCOCC(=O)N[C@H](CCCCN)C(N)=O)CC(C)C)NC(=O)[C@H](CCC(N)=O)NC(=O)[C@H](Cc2c[nH]c3ccccc23)NC(=O)[C@H]([C@@H](C)O)NC(=O)[C@H](CCC(N)=O)NC1=O [compound 326] gave an IC50 of 224 nM.
For CC(=O)N[C@H]1CSSC[C@@H](C(=O)N[C@@H](Cc2ccc(O)cc2)C(=O)N[C@@H](Cc2c[nH]c3ccccc23)C(=O)N[C@@H](CCCNC(=N)N)C(=O)N[C@@H](C)CC(=O)N[C@@H](CC(N)=O)C(=O)NCC(=O)NCCOCC(=O)N[C@H](CCCCN)C(N)=O)NC(=O)[C@H](CCC(N)=O)NC(=O)[C@H](Cc2c[nH]c3ccccc23)NC(=O)[C@H]([C@@H](C)O)NC(=O)[C@H](CCC(N)=O)NC1=O [compound 328], the IC50 was 457 nM.
Compound CC(=O)N[C@H]1CSSC[C@@H](C(=O)N[C@@H](Cc2ccc(O)cc2)C(=O)N[C@@H](Cc2c[nH]c3ccccc23)C(=O)N[C@H](CC(=O)N[C@H](C(=O)N[C@@H](CC(N)=O)C(=O)NCC(=O)NCCOCC(=O)N[C@H](CCCCN)C(N)=O)C(C)C)CC(C)C)NC(=O)[C@H](CCC(N)=O)NC(=O)[C@H](Cc2c[nH]c3ccccc23)NC(=O)[C@H]([C@@H](C)O)NC(=O)[C@H](CCC(N)=O)NC1=O [compound 332] has an IC50 of 311 nM.
CC(=O)N[C@H]1CSSC[C@@H](C(=O)N[C@@H](Cc2ccc(O)cc2)C(=O)N[C@@H](Cc2c[nH]c3ccccc23)C(=O)N[C@@H](C)CC(=O)N[C@H](C(=O)N[C@@H](CC(N)=O)C(=O)NCC(=O)NCCOCC(=O)N[C@H](CCCCN)C(N)=O)C(C)C)NC(=O)[C@H](CCC(N)=O)NC(=O)[C@H](Cc2c[nH]c3ccccc23)NC(=O)[C@H]([C@@H](C)O)NC(=O)[C@H](CCC(N)=O)NC1=O [compound 334] gave an IC50 of 355 nM.
In the case of CC(=O)N[C@H]1CSSC[C@@H](C(=O)N[C@@H](Cc2ccc(O)cc2)C(=O)N[C@@H](Cc2c[nH]c3ccccc23)C(=O)N[C@H](CC(=O)N[C@H](C(=O)N[C@@H](CC(N)=O)C(=O)NCC(=O)NCCOCC(=O)N[C@H](CCCCN)C(N)=O)C(C)C)C(C)C)NC(=O)[C@H](CCC(N)=O)NC(=O)[C@H](Cc2c[nH]c3ccccc23)NC(=O)[C@H]([C@@H](C)O)NC(=O)[C@H](CCC(N)=O)NC1=O [compound 335], the IC50 is reported as 501 nM.

Same assay, conditions: read-out: Human IL23/IL23R ELISA IC50; Table E3H
In the case of CC(=O)N[C@H]1CSSC[C@@H](C(=O)N[C@@H](Cc2ccc(O)cc2)C(=O)N[C@@H](Cc2c[nH]c3ccccc23)C(=O)N[C@@H](CCC(C)C)C(=O)N[C@@H](CCC(=O)O)C(=O)N[C@H](C(=O)NCC(N)=O)[C@@H](C)O)NC(=O)[C@H](CCC(N)=O)NC(=O)[C@H](Cc2c[nH]c3ccccc23)NC(=O)[C@H]([C@@H](C)O)NC(=O)[C@H](CCC(N)=O)NC1=O [compound 402], the IC50 is reported as 818 nM.

Same assay, conditions: read-out: Human IL23R/IL23 ELISA; peptide dimers, numeric
With CC(C)C[C@H](NC(=O)[C@H](C)N)C(=O)N[C@H](C(=O)N[C@@H](Cc1c[nH]c2ccccc12)C(=O)N[C@@H](CCC(=O)O)C(=O)N[C@@H](Cc1ccccc1)C(=O)N[C@@H](Cc1ccc(O)cc1)C(=O)N[C@@H](Cc1c[nH]c2ccccc12)C(=O)N[C@@H](CC(C)C)C(=O)N[C@@H](CSSC[C@H](NC(=O)[C@H](CC(C)C)NC(=O)[C@H](Cc1c[nH]c2ccccc12)NC(=O)[C@H](Cc1ccc(O)cc1)NC(=O)[C@H](Cc1ccccc1)NC(=O)[C@H](CCC(=O)O)NC(=O)[C@H](Cc1c[nH]c2ccccc12)NC(=O)[C@@H](NC(=O)[C@H](CC(C)C)NC(=O)[C@H](C)N)[C@@H](C)O)C(=O)N[C@@H](CCCNC(=N)N)C(=O)N[C@@H](CCC(=O)O)C(N)=O)C(=O)N[C@@H](CCCNC(=N)N)C(=O)N[C@@H](CCC(=O)O)C(N)=O)[C@@H](C)O [compound 278] the IC50 was > 10000 nM.
In the case of CC(=O)N[C@H](CCCCNC(=O)COCC(=O)NCCCC[C@@H](NC(C)=O)C(=O)N[C@@H](CO)C(=O)N[C@H]1CSSC[C@@H](C(=O)N[C@@H](Cc2ccc(O)cc2)C(=O)N[C@@H](Cc2c[nH]c3ccccc23)C(=O)N[C@@H](Cc2c[nH]cn2)C(=O)N[C@H](C(=O)N[C@@H](Cc2ccccc2)C(=O)NCC(=O)O)[C@@H](C)O)NC(=O)[C@H](C(C)C)NC(=O)[C@H](Cc2c[nH]c3ccccc23)NC(=O)[C@H](CC(=O)O)NC(=O)[C@H](C)NC1=O)C(=O)N[C@@H](CO)C(=O)N[C@H]1CSSC[C@@H](C(=O)N[C@@H](Cc2ccc(O)cc2)C(=O)N[C@@H](Cc2c[nH]c3ccccc23)C(=O)N[C@@H](Cc2c[nH]cn2)C(=O)N[C@H](C(=O)N[C@@H](Cc2ccccc2)C(=O)NCC(=O)O)[C@@H](C)O)NC(=O)[C@H](C(C)C)NC(=O)[C@H](Cc2c[nH]c3ccccc23)NC(=O)[C@H](CC(=O)O)NC(=O)[C@H](C)NC1=O [compound 292], the IC50 is reported as > 10000 nM.
In the case of CC(=O)N[C@H](CCCCNC(=O)COCC(=O)NCCCC[C@@H](NC(C)=O)C(=O)N[C@H]1CSSC[C@@H](C(=O)N[C@@H](Cc2ccc(O)cc2)C(=O)N[C@@H](Cc2c[nH]c3ccccc23)C(=O)N[C@@H](Cc2c[nH]cn2)C(=O)N[C@H](C(=O)N[C@@H](Cc2ccccc2)C(=O)NCC(=O)O)[C@@H](C)O)NC(=O)[C@H](C(C)C)NC(=O)[C@H](Cc2c[nH]c3ccccc23)NC(=O)[C@H](CC(=O)O)NC(=O)[C@H](C)NC1=O)C(=O)N[C@H]1CSSC[C@@H](C(=O)N[C@@H](Cc2ccc(O)cc2)C(=O)N[C@@H](Cc2c[nH]c3ccccc23)C(=O)N[C@@H](Cc2c[nH]cn2)C(=O)N[C@H](C(=O)N[C@@H](Cc2ccccc2)C(=O)NCC(=O)O)[C@@H](C)O)NC(=O)[C@H](C(C)C)NC(=O)[C@H](Cc2c[nH]c3ccccc23)NC(=O)[C@H](CC(=O)O)NC(=O)[C@H](C)NC1=O [compound 295], the IC50 is reported as > 10000 nM.
With CC(=O)N[C@H]1CSSC[C@@H](C(=O)N[C@@H](Cc2ccc(O)cc2)C(=O)N[C@@H](Cc2c[nH]c3ccccc23)C(=O)N[C@@H](Cc2c[nH]cn2)C(=O)N[C@H](C(=O)N[C@@H](Cc2ccccc2)C(=O)NCC(=O)O)[C@@H](C)O)NC(=O)[C@H](C(C)C)NC(=O)[C@H](Cc2c[nH]c3ccccc23)NC(=O)[C@H](CC(=O)O)NC(=O)[C@H](CCCCNC(=O)COCC(=O)NCCCC[C@@H]2NC(=O)[C@@H](NC(C)=O)CSSC[C@@H](C(=O)N[C@@H](Cc3ccc(O)cc3)C(=O)N[C@@H](Cc3c[nH]c4ccccc34)C(=O)N[C@@H](Cc3c[nH]cn3)C(=O)N[C@H](C(=O)N[C@@H](Cc3ccccc3)C(=O)NCC(=O)O)[C@@H](C)O)NC(=O)[C@H](C(C)C)NC(=O)[C@H](Cc3c[nH]c4ccccc34)NC(=O)[C@H](CC(=O)O)NC2=O)NC1=O [compound 296] the IC50 was > 10000 nM.
CC(=O)N[C@H]1CSSC[C@@H](C(=O)N[C@@H](Cc2ccc(O)cc2)C(=O)N[C@@H](Cc2c[nH]c3ccccc23)C(=O)N[C@@H](Cc2c[nH]cn2)C(=O)N[C@H](C(=O)N[C@@H](Cc2ccccc2)C(=O)NCC(=O)O)[C@@H](C)O)NC(=O)[C@H](CCCCNC(=O)COCC(=O)NCCCC[C@@H]2NC(=O)[C@H](Cc3c[nH]c4ccccc34)NC(=O)[C@H](CC(=O)O)NC(=O)[C@H](C)NC(=O)[C@@H](NC(C)=O)CSSC[C@@H](C(=O)N[C@@H](Cc3ccc(O)cc3)C(=O)N[C@@H](Cc3c[nH]c4ccccc34)C(=O)N[C@@H](Cc3c[nH]cn3)C(=O)N[C@H](C(=O)N[C@@H](Cc3ccccc3)C(=O)NCC(=O)O)[C@@H](C)O)NC2=O)NC(=O)[C@H](Cc2c[nH]c3ccccc23)NC(=O)[C@H](CC(=O)O)NC(=O)[C@H](C)NC1=O [compound 297] was tested, and the IC50 was > 10000 nM.
For CC(=O)N[C@H]1CSSC[C@@H](C(=O)N[C@@H](Cc2ccc(O)cc2)C(=O)N[C@@H](Cc2c[nH]c3ccccc23)C(=O)N[C@@H](Cc2c[nH]cn2)C(=O)N[C@@H](CCCCNC(=O)COCC(=O)NCCCC[C@H](NC(=O)[C@H](Cc2c[nH]cn2)NC(=O)[C@H](Cc2c[nH]c3ccccc23)NC(=O)[C@H](Cc2ccc(O)cc2)NC(=O)[C@@H]2CSSC[C@H](NC(C)=O)C(=O)N[C@@H](C)C(=O)N[C@@H](CC(=O)O)C(=O)N[C@@H](Cc3c[nH]c4ccccc34)C(=O)N[C@@H](C(C)C)C(=O)N2)C(=O)N[C@@H](Cc2ccccc2)C(=O)NCC(=O)O)C(=O)N[C@@H](Cc2ccccc2)C(=O)NCC(=O)O)NC(=O)[C@H](C(C)C)NC(=O)[C@H](Cc2c[nH]c3ccccc23)NC(=O)[C@H](CC(=O)O)NC(=O)[C@H](C)NC1=O [compound 299], the IC50 was > 10000 nM.
CC(=O)N[C@H]1CSSC[C@@H](C(=O)N[C@@H](Cc2ccc(O)cc2)C(=O)N[C@@H](Cc2c[nH]c3ccccc23)C(=O)N[C@@H](Cc2c[nH]cn2)C(=O)N[C@H](C(=O)N[C@@H](Cc2ccccc2)C(=O)N[C@@H](CC(=O)O)C(=O)N[C@@H](CCCCNC(=O)COCC(=O)NCCCC[C@H](NC(=O)[C@H](CC(=O)O)NC(=O)[C@H](Cc2ccccc2)NC(=O)[C@@H](NC(=O)[C@H](Cc2c[nH]cn2)NC(=O)[C@H](Cc2c[nH]c3ccccc23)NC(=O)[C@H](Cc2ccc(O)cc2)NC(=O)[C@@H]2CSSC[C@H](NC(C)=O)C(=O)N[C@@H](C)C(=O)N[C@@H](CC(=O)O)C(=O)N[C@@H](Cc3c[nH]c4ccccc34)C(=O)N[C@@H](C(C)C)C(=O)N2)[C@@H](C)O)C(=O)O)C(=O)O)[C@@H](C)O)NC(=O)[C@H](C(C)C)NC(=O)[C@H](Cc2c[nH]c3ccccc23)NC(=O)[C@H](CC(=O)O)NC(=O)[C@H](C)NC1=O [compound 301] was tested, and the IC50 was > 10000 nM.
